# Data: PMC10940318, “Targeted intracellular delivery of dimeric STINGa by two pHLIP peptides for treatment of solid tumors” (Frontiers in Pharmacology, 2024)
# Chains of the proteins cited; added tags and fusions are not shown.
# UniProt Q86WV6, whole entry: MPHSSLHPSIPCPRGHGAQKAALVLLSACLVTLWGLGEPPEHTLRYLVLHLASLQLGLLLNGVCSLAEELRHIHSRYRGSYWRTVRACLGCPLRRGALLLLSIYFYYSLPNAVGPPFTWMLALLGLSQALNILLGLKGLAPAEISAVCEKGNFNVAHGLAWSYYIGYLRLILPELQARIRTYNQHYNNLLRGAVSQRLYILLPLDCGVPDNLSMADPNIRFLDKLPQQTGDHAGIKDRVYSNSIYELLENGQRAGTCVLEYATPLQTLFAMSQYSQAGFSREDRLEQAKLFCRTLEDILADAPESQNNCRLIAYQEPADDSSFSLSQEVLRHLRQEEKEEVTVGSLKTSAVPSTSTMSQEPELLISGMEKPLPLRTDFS
# Tests used:
# [1] = tested on: CT26 murine colorectal cancer tumors; assay: Treatment of CT26 tumors in mice; type: in vivo, Balb/c mice; settings: two IP injections of 300 µM 500 µL on days 1 and 3
# human STING WT protein = human STING WT protein (Homo sapiens, UniProt Q86WV6); assay: HTRF competitive binding to STING protein (human STING WT binding kit); settings: read-out: binding affinity to STING protein; HTRF competitive assay, 6His-tagged human STING WT, d2-labelled ligand, 3 h RT; EC50 in method, IC50 in Fig. S1
smiles,measurement,setting,value
COc1cc2sc(C(=O)CCC(=O)O)cc2cc1OCCCOc1cc2sc(C(=O)CCC(=O)O)cc2cc1OC,therapeutic activity on animals (in words),[1]; CT26 tumors,does not exhibit any therapeutic activity
same,mice with tumor eradicated / survived out of treated,"[1]; CT26 tumors 100-150 mm3, female Balb/c, followed 65 days",0/5
same,"time in which all animals developed endpoint size tumors (2,000 mm3)",[1]; same range stated for vehicle,14–20 days p.i.
same,IC50,human STING WT protein,24 nM
